The target of the test is human serum albumin (HSA) (Homo sapiens, UniProt P02768). Briefly: zonal elution, high-performance affinity chromatography on entrapped HSA. The class given is binding.

By UniProt entry, the sequences of proteins in these tests, tags left out. Residues count along the entry.
UniProt P02768, 25-609: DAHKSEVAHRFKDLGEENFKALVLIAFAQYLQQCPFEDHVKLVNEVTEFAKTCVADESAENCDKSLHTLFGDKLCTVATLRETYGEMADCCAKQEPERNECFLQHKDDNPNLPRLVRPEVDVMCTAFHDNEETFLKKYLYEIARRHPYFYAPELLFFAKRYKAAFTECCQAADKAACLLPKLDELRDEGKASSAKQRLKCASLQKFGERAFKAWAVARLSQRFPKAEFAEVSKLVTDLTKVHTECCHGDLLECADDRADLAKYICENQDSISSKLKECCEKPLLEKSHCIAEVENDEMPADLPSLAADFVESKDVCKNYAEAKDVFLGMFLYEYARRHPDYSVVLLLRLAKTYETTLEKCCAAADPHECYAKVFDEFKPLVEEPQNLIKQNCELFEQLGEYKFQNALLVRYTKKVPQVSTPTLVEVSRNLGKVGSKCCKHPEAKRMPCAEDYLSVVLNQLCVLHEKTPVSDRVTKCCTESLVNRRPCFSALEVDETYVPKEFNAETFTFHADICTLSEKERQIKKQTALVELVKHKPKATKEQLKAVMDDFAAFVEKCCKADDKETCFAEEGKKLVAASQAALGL

For the compound `CN(C)CCCN1c2ccccc2Sc2ccc(Cl)cc21` [chlorpromazine], binding was characterised by a dissociation constant (Kd) of 8.33 µM.

The Kd is the equilibrium constant for the complex coming apart.

For the origin of these results see paper PMC4862888 (Journal of chromatography. B, Analytical technologies in …, 2015).
